The structures appear in SMILES notation. This is a selection; strong and weak results do not stand in their true shares. Some results for these compounds are left out of this collection, so the calls shown say nothing about other tests. The source made the active and inactive calls. Cut-off read from the data, not from the text of the source: active = inhibition above about 20%; inactive = the rest.

Protein sequences, listed by entry. Tags and fused reporters are not part of them.
UniProt P0A8V2, whole entry: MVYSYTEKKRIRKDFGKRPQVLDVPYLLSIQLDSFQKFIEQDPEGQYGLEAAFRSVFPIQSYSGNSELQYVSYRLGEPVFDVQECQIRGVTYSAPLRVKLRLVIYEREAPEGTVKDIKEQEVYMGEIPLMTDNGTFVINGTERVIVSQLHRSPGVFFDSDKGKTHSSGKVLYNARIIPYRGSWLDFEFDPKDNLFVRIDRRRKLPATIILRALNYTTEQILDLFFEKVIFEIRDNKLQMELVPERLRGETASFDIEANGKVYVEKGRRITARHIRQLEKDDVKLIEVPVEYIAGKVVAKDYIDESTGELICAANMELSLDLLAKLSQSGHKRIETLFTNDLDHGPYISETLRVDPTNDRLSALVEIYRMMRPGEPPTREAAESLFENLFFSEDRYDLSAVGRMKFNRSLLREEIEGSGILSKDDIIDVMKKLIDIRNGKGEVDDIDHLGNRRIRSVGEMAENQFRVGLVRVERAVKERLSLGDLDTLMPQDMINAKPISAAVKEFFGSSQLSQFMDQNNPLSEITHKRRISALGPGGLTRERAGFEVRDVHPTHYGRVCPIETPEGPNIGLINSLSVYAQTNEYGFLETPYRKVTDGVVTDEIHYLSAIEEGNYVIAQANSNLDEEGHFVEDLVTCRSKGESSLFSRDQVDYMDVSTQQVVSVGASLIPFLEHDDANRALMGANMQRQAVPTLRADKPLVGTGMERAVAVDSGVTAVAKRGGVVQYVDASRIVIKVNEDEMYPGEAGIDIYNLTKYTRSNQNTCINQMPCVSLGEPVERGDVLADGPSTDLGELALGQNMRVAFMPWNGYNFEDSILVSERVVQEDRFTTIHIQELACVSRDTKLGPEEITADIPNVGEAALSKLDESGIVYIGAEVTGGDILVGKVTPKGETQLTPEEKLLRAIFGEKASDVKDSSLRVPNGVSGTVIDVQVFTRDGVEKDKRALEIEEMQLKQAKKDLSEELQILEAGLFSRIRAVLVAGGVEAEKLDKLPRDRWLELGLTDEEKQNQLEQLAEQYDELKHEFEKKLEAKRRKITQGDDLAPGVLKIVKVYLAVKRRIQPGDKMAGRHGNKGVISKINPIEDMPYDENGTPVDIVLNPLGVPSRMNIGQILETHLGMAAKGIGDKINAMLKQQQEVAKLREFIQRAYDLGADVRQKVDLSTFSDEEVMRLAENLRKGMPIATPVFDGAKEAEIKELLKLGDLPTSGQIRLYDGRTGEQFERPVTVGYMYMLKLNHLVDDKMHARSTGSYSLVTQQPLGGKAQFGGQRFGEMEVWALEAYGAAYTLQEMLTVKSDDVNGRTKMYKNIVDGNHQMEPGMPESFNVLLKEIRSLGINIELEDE

This assay deals with DNA-directed RNA polymerase subunit beta (Escherichia coli (strain K12)) (UniProt P0A8V2). Put plainly: bacterial RNA polymerase transcription inhibition – biochemical (AID 559).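 Note: 0% = enzyme without compound and 100% = no enzyme blank.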 The note with it: E. coli RNA polymerase, fluorescence transcription assay; stronger effect = higher value;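 tested at 10 µM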.
Broadly, the inhibition is the change of the read-out against control, counted positive when it falls. On to `O=C(OC1CN2CCC1CC2)C(CO)(c1ccccc1)c1ccccc1` (configuration not stated), for which the inhibition was inactive: 10.4%. As for `CN(C)c1cccc(C(=O)NCC2(N(C)C)CCCCC2)c1`, the inhibition is inactive: 7.59%.

Values taken from PubChem BioAssay AID559 (PCMD, 2006).
